Among the data in article PMC11140586 are percent of aSN bound to lipoproteins (removed with ApoE-positive vesicles), PD samples and percent of aSN bound to lipoproteins (removed with ApoE-positive vesicles), controls values, retold here.

The target of the assay is apolipoprotein E (human (endogenous in CSF and plasma)) (UniProt P02649). Put plainly: co-IP + ELISA; immunodepletion of ApoE-positive vesicles from 200 uL human CSF (anti-ApoE antibody overnight at 4 C, protein A/G agarose 6 h at RT); aSN in the sample measured by ELISA before and after depletion; PD patients and controls. On the technique in general: In an ELISA, binding on a coated surface is turned into a signal by an enzyme label.

Regarding “α-synuclein (from UniProt P37840 1-140) (natural protein)”, the percent of aSN bound to lipoproteins (removed with ApoE-positive vesicles), PD samples is 48% and the percent of aSN bound to lipoproteins (removed with ApoE-positive vesicles), controls came to 44%.
